What was measured:
Carbonic anhydrase 7 = Carbonic anhydrase 7 (Homo sapiens, UniProt P43166); assay: ASSAY_NAME: ChEMBL_2499733 DESCRIPTION: Inhibition of recombinant human CA-VII incubated for 15 mins by stop-flow method
Carbonic anhydrase 2 = Carbonic anhydrase 2 (Homo sapiens, UniProt P00918); assay: ASSAY_NAME: ChEMBL_2499730 DESCRIPTION: Inhibition of recombinant human CA-II incubated for 15 mins by stop-flow method
Carbonic anhydrase 1 = Carbonic anhydrase 1 (Homo sapiens, UniProt P00915); assay: ASSAY_NAME: ChEMBL_2499729 DESCRIPTION: Inhibition of recombinant human CA-I incubated for 15 mins by stop-flow method
Carbonic anhydrase 4 = Carbonic anhydrase 4 (Homo sapiens, UniProt P22748); assay: ASSAY_NAME: ChEMBL_2499731 DESCRIPTION: Inhibition of recombinant human CA-IV incubated for 15 mins by stop-flow method
Carbonic anhydrase 9 = Carbonic anhydrase 9 (Homo sapiens, UniProt Q16790); assay: ASSAY_NAME: ChEMBL_2499734 DESCRIPTION: Inhibition of recombinant human CA-IX incubated for 15 mins by stop-flow method
Carbonic anhydrase 12 = Carbonic anhydrase 12 (Homo sapiens, UniProt O43570); assay: ASSAY_NAME: ChEMBL_2499735 DESCRIPTION: Inhibition of recombinant human CA-XII incubated for 15 mins by stop-flow method
[1] = molecular target: Carbonic anhydrase 5A, mitochondrial (Homo sapiens, UniProt P35218); assay: ASSAY_NAME: ChEMBL_2499732 DESCRIPTION: Inhibition of recombinant human CA-VA incubated for 15 mins by stop-flow method
Carbonic anhydrase 13 = Carbonic anhydrase 13 (Homo sapiens, UniProt Q8N1Q1); assay: ASSAY_NAME: ChEMBL_2499736 DESCRIPTION: Inhibition of recombinant human CA-XIII incubated for 15 mins by stop-flow method
Carbonic anhydrase 14 = Carbonic anhydrase 14 (Homo sapiens, UniProt Q9ULX7); assay: ASSAY_NAME: ChEMBL_2499737 DESCRIPTION: Inhibition of recombinant human CA-XIV incubated for 15 mins by stop-flow method

Chains of the proteins cited; added tags and fusions are not shown. Lines headed by an entry give the natural chain unless they say otherwise; changes in a name come on top. Residues count along the entry.
UniProt P43166: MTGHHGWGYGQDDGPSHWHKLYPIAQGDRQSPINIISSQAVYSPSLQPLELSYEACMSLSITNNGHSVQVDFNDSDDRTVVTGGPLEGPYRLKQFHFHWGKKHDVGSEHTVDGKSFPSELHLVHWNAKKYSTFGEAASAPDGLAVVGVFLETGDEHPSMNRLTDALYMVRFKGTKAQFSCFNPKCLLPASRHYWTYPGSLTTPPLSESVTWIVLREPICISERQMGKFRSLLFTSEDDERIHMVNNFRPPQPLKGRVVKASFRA
UniProt P00915, 2-261 limits assumed: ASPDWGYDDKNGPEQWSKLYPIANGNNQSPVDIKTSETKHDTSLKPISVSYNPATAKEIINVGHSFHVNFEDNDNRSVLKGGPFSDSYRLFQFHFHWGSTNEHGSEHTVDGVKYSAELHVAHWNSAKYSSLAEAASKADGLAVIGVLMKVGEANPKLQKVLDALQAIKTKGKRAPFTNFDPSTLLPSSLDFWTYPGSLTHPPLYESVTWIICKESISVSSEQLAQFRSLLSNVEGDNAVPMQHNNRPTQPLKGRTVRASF
UniProt P22748, 19-284 limits assumed: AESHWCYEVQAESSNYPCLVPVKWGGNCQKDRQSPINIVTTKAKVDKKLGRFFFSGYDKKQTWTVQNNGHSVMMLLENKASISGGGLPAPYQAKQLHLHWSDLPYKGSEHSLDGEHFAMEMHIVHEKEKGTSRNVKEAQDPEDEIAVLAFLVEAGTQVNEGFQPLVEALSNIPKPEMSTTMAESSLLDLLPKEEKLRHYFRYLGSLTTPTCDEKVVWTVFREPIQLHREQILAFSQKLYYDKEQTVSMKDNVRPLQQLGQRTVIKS
UniProt O43570, 25-354 limits assumed: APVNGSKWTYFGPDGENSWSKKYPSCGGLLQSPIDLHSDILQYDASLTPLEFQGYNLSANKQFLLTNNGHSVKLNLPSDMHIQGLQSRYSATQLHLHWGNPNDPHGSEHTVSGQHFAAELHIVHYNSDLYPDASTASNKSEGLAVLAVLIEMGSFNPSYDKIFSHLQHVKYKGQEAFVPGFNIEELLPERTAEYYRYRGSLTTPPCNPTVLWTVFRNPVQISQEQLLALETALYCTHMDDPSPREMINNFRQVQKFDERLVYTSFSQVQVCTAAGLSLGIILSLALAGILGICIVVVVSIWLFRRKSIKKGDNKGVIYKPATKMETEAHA
UniProt P35218, 39-305 limits assumed: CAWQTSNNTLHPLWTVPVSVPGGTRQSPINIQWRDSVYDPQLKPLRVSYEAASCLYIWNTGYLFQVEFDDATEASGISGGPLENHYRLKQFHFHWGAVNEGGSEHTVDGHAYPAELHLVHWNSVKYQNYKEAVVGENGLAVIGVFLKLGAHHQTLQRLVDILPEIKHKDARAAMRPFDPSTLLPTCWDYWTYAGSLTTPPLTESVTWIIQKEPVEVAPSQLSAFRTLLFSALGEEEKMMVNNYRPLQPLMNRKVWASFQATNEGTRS
UniProt Q8N1Q1: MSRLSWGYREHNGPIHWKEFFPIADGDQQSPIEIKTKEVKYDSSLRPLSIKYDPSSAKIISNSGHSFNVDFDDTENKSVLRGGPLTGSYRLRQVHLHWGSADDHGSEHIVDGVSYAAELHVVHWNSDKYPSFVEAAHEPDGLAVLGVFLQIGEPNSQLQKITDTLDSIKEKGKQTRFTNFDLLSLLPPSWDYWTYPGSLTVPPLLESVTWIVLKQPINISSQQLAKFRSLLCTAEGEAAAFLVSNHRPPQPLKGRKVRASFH
UniProt Q9ULX7, 16-337 limits assumed: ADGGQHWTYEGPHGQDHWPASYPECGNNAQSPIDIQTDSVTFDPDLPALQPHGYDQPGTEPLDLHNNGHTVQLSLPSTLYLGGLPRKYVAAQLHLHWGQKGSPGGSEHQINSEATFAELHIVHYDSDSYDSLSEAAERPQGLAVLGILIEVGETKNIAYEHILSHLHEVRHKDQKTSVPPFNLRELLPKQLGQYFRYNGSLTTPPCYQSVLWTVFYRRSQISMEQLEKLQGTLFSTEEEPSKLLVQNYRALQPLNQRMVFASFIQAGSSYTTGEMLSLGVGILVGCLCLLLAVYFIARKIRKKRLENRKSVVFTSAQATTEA

## N#CC1(Nc2ccc3ccccc3c2)CCN(CCc2ccc(S(N)(=O)=O)cc2)CC1
Carbonic anhydrase 7
  Ki: 8.9 nM

## NS(=O)(=O)c1ccc(C(=O)NCC2(Nc3ccccc3)CCN(CCc3ccccc3)CC2)cc1
Carbonic anhydrase 2
  Ki: 8.6 nM
Carbonic anhydrase 1
  Ki: 59 nM
Carbonic anhydrase 4
  Ki: 562 nM
Carbonic anhydrase 9
  Ki: 26 nM
Carbonic anhydrase 12
  Ki: 4.3 nM

## NS(=O)(=O)c1ccc(CCN2CCC(Nc3ccc4ccccc4c3)CC2)cc1
Carbonic anhydrase 9
  Ki: 37 nM

## Cc1ccc(NC2CCN(CCc3ccc(S(N)(=O)=O)cc3)CC2)cc1
[1]
  Ki: 97 nM

## NS(=O)(=O)c1ccc(NC(=O)NCC2(Nc3ccccc3)CCN(CCc3ccccc3)CC2)cc1
Carbonic anhydrase 13
  Ki: 85 nM
Carbonic anhydrase 14
  Ki: 80 nM

Reference: BindingDB's records for 37678143
